Molecular target: human κ-opioid receptor (OPRK1) (Homo sapiens, UniProt P41145)
Assay: Forskolin-induced cAMP accumulation assay, KOR antagonist mode
Settings: versus EC90 of U50488H; Imax normalized to nor-BNI

Amino acid sequences for entries named in this document (tags omitted). A change or cut given only in a name is not applied to a line headed by its entry.
UniProt P41145: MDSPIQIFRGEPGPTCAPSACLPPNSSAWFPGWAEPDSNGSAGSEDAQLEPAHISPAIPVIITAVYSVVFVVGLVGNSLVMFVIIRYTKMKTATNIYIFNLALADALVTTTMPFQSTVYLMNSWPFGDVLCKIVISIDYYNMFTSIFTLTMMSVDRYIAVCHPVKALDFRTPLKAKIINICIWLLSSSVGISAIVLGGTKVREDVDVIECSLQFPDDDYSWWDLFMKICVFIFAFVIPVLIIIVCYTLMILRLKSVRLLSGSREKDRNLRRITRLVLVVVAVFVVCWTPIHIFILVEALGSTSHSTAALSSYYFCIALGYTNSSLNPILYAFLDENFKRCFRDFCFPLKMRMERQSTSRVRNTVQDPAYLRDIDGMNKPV

For Oc1ccc2c3c1O[C@H]1c4[nH]c5c(c4C[C@@]4(O)[C@@H](C2)N(CC2CC2)CC[C@]314)C[C@@]1(O)[C@H]2Cc3ccc(O)c4c3[C@@]1(CCN2CC1CC1)[C@H]5O4 [nor-BNI, reference compound], the “KOR Antagonist %Imax ± SEM” value was 102 ± 1%.

Reference: paper PMC10708259 (Molecules, 2023)
